Results on one compound are retold here after patent publication US11401278B2, “Macrocyclic indole derivatives” (The Broad Institute, Inc., priority 2017, dated 2022).

The subject of one test is AMO-1. Description: Antiproliferation assay (Assay 7), AMO-1. Particulars: read-out: Antiproli AMO-1 [M] IC50, CellTiter-Glo, 72 hours, several values per example. The method, then:
Assessment of the Anti-Proliferative Effect of Compounds in Different Cell Lines
The impact of compounds on the proliferation of different cell lines was assessed using the CellTiter-Glo® Luminescent Cell Viability reagent from Promega (G7573).
The different cell lines were plated in culture medium (RPMI 1640 [Biochrom; #FG 1215] supplemented with 10% Fetal Calf Serum [Biochrom; #S 0415]) at a density of 3,300 cells (for suspension cells) or 800 cells (for adherent cells) in 30 μl/well in a sterile, solid black, flat bottom, polystyrene, TC-treated 384-well microplate (Corning #3571) using Multidrop Combi Reagent Dispenser. In parallel, cells were plated in a reference (day 0) plate for time zero determination. […]
On the next day, cells were treated with compounds (stock solution, 10 mM in DMSO) using the HP D300 Digital Dispenser in a concentration range of 3.3×10e-5 M (33 μM) to 5×10e-9 M (5 nM) in a single-dot curve with at least 16 dilutions and a DMSO concentration of 0.33%. […] The day 0 plate was measured by adding 30 μL/well of CTG solution (CellTiter-Glo® Luminescent Cell Viability reagent, Promega G7573) to time zero wells in the reference plate followed by a 10 minutes incubation and luminescence reading at 0.1 ms. using the PHERAstar FS microplate reader (BMG Labtech).
After 72 hours incubation, the treated plates were measured in the same way as the day 0 plate mentioned above. […]

Another test deals with SUDHL5. Briefly: Induction of caspase-3/7 activity (Assay 4), SUDHL5. The note with it: read-out: Caspase SUDHL5 [M] (median) EC50, caspase-3/7 induction, 3 hours. The method, then:
Cellular Assays Assay 4 Induction of Caspase-3/7 Activity Upon Treatment of Cells with Selected Compounds
The BH3-domain of MCL-1 sequesters pro-apoptotic proteins, thereby inhibiting apoptosis. In contrast, MCL-1 inhibitors are expected to antagonize this effect leading to an increase in apoptosis, which can be determined by measuring the activity of caspase-3/7.
The activity of caspase-3/7 was determined in DLBCL (Diffuse large B-cell lymphoma) cell lines (SUDHL5 and SUDHL10) upon treatment with different compounds, using the Caspase-Glo® 3/7 reagent from Promega (G8092).
The different cell lines were plated in culture medium (RPMI 1640 [GIBCO #22400-089] supplemented with 10% Fetal Bovine Serum) at a density of 3,300 cells in 30 μl/well in a sterile, solid black, flat bottom, polystyrene, TC-treated 384-well microplate (Corning #3571) using Multidrop Combi Reagent Dispenser. […]
On the next day, the cells were treated with compounds (stock solution, 10 mM in DMSO) using the HP D300 Digital Dispenser in a concentration range of 3.3×10e-5 M (33 μM) to 5×10e-9 M (5 nM) in a single-dot curve with at least 16 dilutions and a DMSO concentration of 0.33%. […] Finally, luminescence was read at 0.1 ms, with a gain of 3000 using the PHERAstar FS microplate reader (BMG Labtech).
For the evaluation of the results, the background measured with “medium-only” was subtracted from all other values. […]

Values joined by “and” are separate entries in the source; they are usually repeats but may differ in a detail not shown here. Equal entries are not always repeated.

`CCc1c2c(nn1C)CNS(=O)(=O)CCCn1c(C(=O)O)c(CCCOc3cccc4cc(F)ccc34)c3ccc(Cl)c-2c31`: the IC50 with AMO-1 was 1e-06 M and 8.2e-07 M. The EC50 in the test with SUDHL5 was determined as 1.5e-06 M.
